Reference: PubChem BioAssay AID2780 (Johns Hopkins Ion Channel Center, 2010)
Only a part is listed here, and it is no random draw. Active and inactive are the calls of the source.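 How the source made its calls: active means membrane potential signal shifting up or down by more than 3 SD of buffer-only wells, on both duplicate plates; inactive means the rest.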

Experiment: membrane potential modulation in parental HEK293, confirmation, counter-screen for TRPC6 inhibitor project, cell-based (AID 2780);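 on membrane potential signal change: plate controls were buffer EC0 wells for no effect and acetylcholine ECmax wells for full effect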
Conditions: parental HEK293 membrane potential dye fluorescence; at 10 µM

SMILES	membrane potential signal change	outcome
O=C(OC1CN2CCC1CC2)C1c2ccccc2Oc2ccccc21 (configuration not stated)	active: 6.87%	
CCC(CO)(C(=O)OC1CN2CCC1CC2)c1ccccc1 (configuration not stated)		inactive
